Assays:
[1] = tested on: zinc precipitated Aβ; assay: Washing of zinc-aggregated synthetic Aβ on nylon membrane (anti Aβ mAb 6E10, ECL-film); assay type: biochemical; conditions: 2 μM in TBS, 200 μl wash; 10 ng Aβ aggregated with 25 μM ZnCl; 100% for TBS alone
Experimental: Samples of 10 ng synthetic Aβ were placed in microtitre wells and caused to aggregate by the addition of 25 μM ZnCl. The aggregates were then transferred to a 0.2 μm nylon membrane by filtration. […] The membrane was fixed, probed with the anti Aβ monoclonal antibody 6E10 and developed for exposure to ECL-film. The transmittance of the ECL-film was measured and the relative signal strength calculated based on 100% for TBS alone.

[2] = tested on: Aβ; assay: Solubilization of Aβ from Alzheimer's disease brain homogenates (Western blot, mAb W02); assay type: biochemical, human; conditions: % of final PBS/clioquinol extract (100%=800 nM clioquinol)

Oc1c(I)cc(Cl)c2cccnc12 [clioquinol, 5-chloro-7-iodo-8 hydroxyquinoline]
Relative signal strength (Aβ remaining on membrane) [1]: 49% | Optimal concentration for solubilization of Aβ [2]: 10%

From patent US6001852A, “Clioquinol for the treatment of Alzheimer's disease” (priority 1996, dated 1999)
